Laboratory results published in patent US11004539B2, “Predicting metabolic side effects of transported drugs” (The Regents of the University of California, priority 2016, dated 2021).

Target: T1, OAT3 (Mus musculus, UniProt O88909)
T1 sequence (O88909 1-537): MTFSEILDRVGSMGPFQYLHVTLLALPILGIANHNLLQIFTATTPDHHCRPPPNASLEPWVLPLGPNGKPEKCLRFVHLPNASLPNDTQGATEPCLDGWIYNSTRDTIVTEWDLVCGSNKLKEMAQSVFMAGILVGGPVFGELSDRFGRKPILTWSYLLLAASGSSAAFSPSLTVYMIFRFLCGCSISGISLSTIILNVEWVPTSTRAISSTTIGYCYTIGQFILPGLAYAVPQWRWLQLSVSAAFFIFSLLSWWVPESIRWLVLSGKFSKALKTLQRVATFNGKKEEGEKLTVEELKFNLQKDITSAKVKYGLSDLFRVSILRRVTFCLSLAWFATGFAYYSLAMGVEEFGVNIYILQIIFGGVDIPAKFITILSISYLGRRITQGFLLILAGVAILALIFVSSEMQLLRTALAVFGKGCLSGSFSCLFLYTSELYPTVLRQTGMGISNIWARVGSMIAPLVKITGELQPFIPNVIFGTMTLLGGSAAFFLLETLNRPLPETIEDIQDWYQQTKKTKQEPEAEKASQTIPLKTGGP
Assay: Plasma metabolomics profiling of Oat3KO versus wild-type mice
Conditions: Oat3KO vs wild type mice

| Substance | change in plasma of the Oat3KO |
| --- | --- |
| phenyllactate | significantly increased |
| deoxycholate | significantly increased |
